Experimental data as given in patent US10166214B2, “Somatostatin receptor subtype 4 (SSTR4) agonists” (Centrexion Therapeutics Corporation, priority 2013, dated 2019).

By UniProt entry, the sequences of proteins in these tests, tags left out. Where a name states a change or a piece, a line headed by the entry shows the natural chain unless it says otherwise.
UniProt P31391: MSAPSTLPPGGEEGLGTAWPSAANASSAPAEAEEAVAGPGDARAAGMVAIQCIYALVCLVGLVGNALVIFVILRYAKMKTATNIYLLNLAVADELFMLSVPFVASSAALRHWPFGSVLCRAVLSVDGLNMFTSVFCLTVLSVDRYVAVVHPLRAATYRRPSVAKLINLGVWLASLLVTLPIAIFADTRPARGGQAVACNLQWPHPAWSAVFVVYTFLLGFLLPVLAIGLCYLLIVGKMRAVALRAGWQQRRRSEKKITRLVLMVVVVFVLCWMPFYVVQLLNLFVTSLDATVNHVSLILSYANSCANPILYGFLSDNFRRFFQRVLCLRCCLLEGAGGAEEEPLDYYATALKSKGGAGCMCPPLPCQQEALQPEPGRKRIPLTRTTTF

Biological target: human Somatostatin 4 receptor (SSTR4) (Homo sapiens (Human), UniProt P31391)
Test: cAMP assay with human somatostatin 4 receptor (hSSTR4 expressing H4 cells)
Assay type: cell-based
Conditions: read-out: SSTR4 agonism EC50
Experimental: Method Description for cAMP Assay with Human Somatostatin 4 Receptor
The activation of the SSTR4 receptor (Gi coupled) causes an inhibition of intracellular cAMP after stimulation with Forskolin, which can be quantifiable by use of a suitable assay Kit and an adequate plate reader. This technique is used to characterize pharmacological effects of the SSTR4 receptor agonists by use of hSSTR4 expressing H4 cells.
Compounds are dissolved and diluted in DMSO. The final test solution contains 1% DMSO. […] Cells are centrifuged and suspended in assay buffer (incl. 1:100 diluted Alexa antibody).
For the assay 5 μl of a cell suspension (approximately 5000 cells/well)—incl. Alexa antibody (diluted 1:100) are added into a 384 well MTP microtitre plate excepting one row or column (depending on the plate layout), which is reserved for the standard curve. Then 2 μl of compound sample is added as concentration response curve (e.g. 1e-5 M to 6e-10 M), usually in triplicates. Each assay contains incubations with vehicle controls instead of compound as controls for non-inhibited cAMP generation (100% CTL; ‘high values’) and incubations with 1 μM Somatosatin as controls for full inhibition and background (0% CTL; ‘low values’). […] Then the plates are shaken briefly and incubated for 60 min at room temperature. After 60 min 10 μl of the detection mix is added into all wells followed by an additional incubation period of 1 h. The plates are read in a suitable plate reader.
From this ratio, cAMP concentrations are calculated from standard curve and the EC50 is estimated by least square curve fit program.

| Structure (SMILES) | EC50 [nM] |
| --- | --- |
| CC(C)(NC(=O)[C@H]1[C@@H]2CNC[C@@H]21)c1noc2c(C3CC3)cccc12 [Example 104] | 1.7 |
| CC(C)(NC(=O)[C@H]1[C@@H]2CNC[C@@H]21)c1ncnc2ccccc12 [Example 89] | 2.6 |
| Cc1nnc(C(C)(C)NC(=O)[C@H]2[C@@H]3CNC[C@@H]32)c2ccccc12 [Example 77] | 0.5 |
| CC(C)(NC(=O)[C@H]1[C@@H]2CNC[C@@H]21)c1noc2c(Cl)cccc12 [Example 103] | 0.3 |
| CC(C)(NC(=O)[C@H]1[C@@H]2CNC[C@@H]21)c1cccc2cnccc12 [Example 91] | 87.2 |
| Cc1cccc2c(C(C)(C)NC(=O)[C@H]3[C@@H]4CNC[C@@H]43)noc12 [Example 92] | 0.4 |
| CC(C)(NC(=O)[C@H]1[C@@H]2CNC[C@@H]21)c1cncc2ccccc12 [Example 90] | 1.4 |
